The values that follow are results of earlier work, collected in publication PMC12979414, “Ascending single-dose study of the safety, pharmacokinetics, and pharmacodynamics of CSTI-500, a novel monoamine triple reuptake inhibitor, first-in-human” (Psychopharmacology, 2025).

Structures are written as SMILES.

The data set relates to SERT. The following applies: 25 mg; ref Meyer et al. [2004].

Turning to `CN[C@H]1CC[C@@H](c2ccc(Cl)c(Cl)c2)c2ccccc21` [sertraline], the “striatal SERT occupancy” value is “approximately 70%”.
